Ab-14 light chain CDR variants: yeast mating affinities

The target is the same throughout: PDVDLGDISGINAS, from the HR2 region of SARS-CoV-2 spike.

Each scFv is VH, the linker GGGGSGGGGSGGGGS, VL, as in the parent Ab-14, and differs from it in the CDRs of the light chain only.
VH: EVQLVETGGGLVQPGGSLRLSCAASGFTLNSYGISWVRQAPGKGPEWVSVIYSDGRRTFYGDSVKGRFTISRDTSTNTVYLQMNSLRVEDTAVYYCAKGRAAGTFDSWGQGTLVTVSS
VL: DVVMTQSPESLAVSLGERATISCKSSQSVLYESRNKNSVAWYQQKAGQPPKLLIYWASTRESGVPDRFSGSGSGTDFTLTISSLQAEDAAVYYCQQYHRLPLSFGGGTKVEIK

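Phage display of a naive human antibody library on the peptide gave the parent. Variants in AAYL50 differ from the parent at up to three CDR positions; double and triple changes were sampled at random. The scFvs were displayed on barcoded MATa yeast, the peptide on MATalpha yeast. Binding brings cells together so that they mate, and sequencing counts the barcode pairs among the diploids. The ratio of observed to expected reads was calibrated, replicate by replicate, on BCL2-family standards whose Kd was known from biolayer interferometry. Mating was done three times.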

Each variant is given by its three light chain CDRs, as the data file delimits them; those of the parent are KSSQSVLYESRNKNSVA, WASTRES, QQYHRLPLS. Every variant below is changed at S58 of the VL (sequential numbering). The read-out is the apparent dissociation constant on a log10 scale (nM): the lower, the stronger. Replicates are averaged; those with no signal do not enter the mean. "nd" means that the variant was in the library but no mating with the target was seen in that replicate; the authors take this as a sign of poor binding, and no number exists. Order: sorted from the lowest average up, undetected variants last. In this assay the parent's reference entry averaged 0.65; its copy inside this library read 1.68.

| CDR-L1 | CDR-L2 | CDR-L3 | log10 Kd (nM) by replicate | mean, log10 nM |
|---|---|---|---|---|
| KSSQSVLYESRNKNSVA | DAYTRES | QQYHRLPLS | -0.50 -0.03 -0.54 | -0.36 |
| KSSQSVLYESENKNSVA | WARTRLS | QQYHRLPLS | 0.45 0.68 0.65 | 0.59 |
| KSSQSVLYESRNKNSVA | WAQTRES | QQYHRLPLC | 0.92 0.97 0.66 | 0.85 |
| KSSQSVLYESRNKNSVA | WADTRES | QQYHSLLLS | 0.88 1.23 0.98 | 1.03 |
| KSSQSVLSESRNKNSVA | WAKTRES | QQYMRLPLS | 1.34 1.29 1.06 | 1.23 |
| KSSQSVLYESRNNNSVA | WAKTREM | QQYHRLPLS | 1.09 1.28 1.33 | 1.23 |
| KSSQSVLYESRSKNSVA | WAVTRES | QQYHRLPLS | 1.79 1.71 2.24 | 1.91 |
| KSSQSVLYESRNCNSVA | WAITRES | QQYHRLPLV | 2.00 1.99 2.29 | 2.09 |
| KSSQSVLYESRNKNSMA | WANTRES | QQYHRKPLS | nd 2.53 nd | 2.53 |
| KSSQSVLYESRNKNSVA | MAYTRQS | QQYHRLPLS | 2.50 2.54 2.91 | 2.65 |
| CSSQSVRYESRNKNSVA | WAMTRES | QQYHRLPLS | nd nd 2.83 | 2.83 |
| KSSQSDLYESRNKNSVA | WAETRES | QQYIRLPLS | 3.50 2.93 4.22 | 3.55 |
| KSSQSVLYNSRNKNSVA | WAGTRES | QQEHRLPLS | nd 4.00 nd | 4.00 |
| KSSQSVLYESRNKNSVA | WAATRES | HQYMRLPLS | 4.27 nd 3.95 | 4.11 |
| KSSQSVLYLSRNKNSVA | WAWTRES | QQYHRLPLS | nd 4.13 nd | 4.13 |
| KESCSVLYESRNKNSVA | WACTRES | QQYHRLPLS | nd 3.53 4.78 | 4.16 |
| KSSQSVLYESRNKGSVA | WAMTRQS | QQYHRLPLS | 3.98 4.06 4.70 | 4.24 |
| KSSQSVLYESRNKNSVA | WAAGRES | QQYHRFPLS | 5.54 4.16 3.27 | 4.32 |
| KSSQSVLYEIRNKNSVP | WAKTRES | QQYHRLPLS | 4.59 nd 4.64 | 4.61 |
| KSSQSVLYESRNKNSVA | WAWTRES | QWYHRVPLS | 5.18 nd nd | 5.18 |
| TSSQSVLYESRNKNSVA | WAMTRES | QQYHRLPLD | nd nd 5.24 | 5.24 |
| KSSQSVLYESRNKNSVA | WAHTIES | QQYHRLNLS | 5.70 nd nd | 5.70 |
| KSSQSVLLESRNKNSHA | WAQTRES | QQYHRLPLS | nd nd nd | nd |
| KSSQSVLYESRNKNSYA | WACTREA | QQYHRLPLS | nd nd nd | nd |
| KSSQSVLYESRNKNSVA | WAWTRES | QQKHRLPLT | nd nd nd | nd |
| KSPQSVLYESRNKNSVW | WAPTRES | QQYHRLPLS | nd nd nd | nd |
| KSSQSVLYESRNKNCVM | WALTRES | QQYHRLPLS | nd nd nd | nd |
| KSSQSVLYMSRNKNSVA | WACTTES | QQYHRLPLS | nd nd nd | nd |
| KSSQSVLYEARNKNSPA | WADTRES | QQYHRLPLS | nd nd nd | nd |
| KMSQSVLYESRNKNSVA | WAYTRES | QQYHRCPLS | nd nd nd | nd |
| KSSQSVLYESRNKNSVA | WAMTRES | QQYHRLPGS | nd nd nd | nd |
| KSSQSVLYESRNKNSVA | WIKTDES | QQYHRLPLS | nd nd nd | nd |
| KSSQSVLYESRNKNSVV | WANTREV | QQYHRLPLS | nd nd nd | nd |
| KSSQSVLYEYRNKNSVA | WAATSES | QQYHRLPLS | nd nd nd | nd |
| KSSQSVLYESRNKNSVA | WARPQES | QQYHRLPLS | nd nd nd | nd |
| MSSQSVLYESRNKNSVA | WARTRES | QQPHRLPLS | nd nd nd | nd |

6 of these entries, quoted again:

| CDR-L1 | CDR-L2 | CDR-L3 | log10 Kd (nM) by replicate | mean, log10 nM |
|---|---|---|---|---|
| KSSQSVLYESRNKNSVA | WAWTRES | QQKHRLPLT | nd nd nd | nd |
| KMSQSVLYESRNKNSVA | WAYTRES | QQYHRCPLS | nd nd nd | nd |
| KSSQSVLYEIRNKNSVP | WAKTRES | QQYHRLPLS | 4.59 nd 4.64 | 4.61 |
| KSSQSVLYESRNKNSMA | WANTRES | QQYHRKPLS | nd 2.53 nd | 2.53 |
| KSSQSVLYESRNKNSVA | WAHTIES | QQYHRLNLS | 5.70 nd nd | 5.70 |
| KSSQSVLYESRNKNSVV | WANTREV | QQYHRLPLS | nd nd nd | nd |

Background: pairings of library AAYL50 with three empty control strains gave a value in 18% of cases (median 4.19, 5th percentile 2.99). Values in that range, when seen in few replicates, are hard to tell from nonspecific mating.

Reference: Engelhart et al. 2022, doi:10.1038/s41597-022-01779-4. File: FLAb, binding data.